Test results published in ChEMBL document CHEMBL1143618, “Discovery of a beta-MSH-derived MC-4R selective agonist” (J Med Chem, 2005).

The chains behind the UniProt entries cited, without tags or fusion partners. Where a name states a change or a piece, a line headed by the entry shows the natural chain unless it says otherwise.
UniProt P41968: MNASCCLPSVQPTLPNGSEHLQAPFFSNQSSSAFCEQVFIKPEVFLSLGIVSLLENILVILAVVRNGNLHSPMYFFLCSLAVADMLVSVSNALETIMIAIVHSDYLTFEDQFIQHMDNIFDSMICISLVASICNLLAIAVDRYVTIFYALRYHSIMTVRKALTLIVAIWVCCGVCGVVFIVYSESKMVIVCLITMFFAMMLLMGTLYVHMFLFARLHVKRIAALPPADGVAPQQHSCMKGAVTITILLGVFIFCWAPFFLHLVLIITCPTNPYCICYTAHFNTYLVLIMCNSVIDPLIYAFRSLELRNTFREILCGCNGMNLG
UniProt P32245, whole entry: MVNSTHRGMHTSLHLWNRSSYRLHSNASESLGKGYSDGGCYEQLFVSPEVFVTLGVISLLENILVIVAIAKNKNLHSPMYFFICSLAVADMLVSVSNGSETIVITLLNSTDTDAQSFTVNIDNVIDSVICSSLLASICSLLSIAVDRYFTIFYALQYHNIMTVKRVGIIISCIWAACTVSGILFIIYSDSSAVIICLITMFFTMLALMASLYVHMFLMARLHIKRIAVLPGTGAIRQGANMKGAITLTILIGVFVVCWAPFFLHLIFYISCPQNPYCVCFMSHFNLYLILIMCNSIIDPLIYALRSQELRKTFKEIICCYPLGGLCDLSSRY

Legend:
Melanocortin receptor 3 = Melanocortin receptor 3 (Homo sapiens, UniProt P41968); assay: Inhibition of [125I]-NDP-alpha-MSH binding to melanocortin-3 receptor expressed in HEK293 cells; format: cell-based
Melanocortin receptor 4 = Melanocortin receptor 4 (Homo sapiens, UniProt P32245); assay: Inhibition of [125I]NDP-alpha-MSH binding to melanocortin-4 receptor expressed in HEK293 cells; format: cell-based

SMILES	Ki (Melanocortin receptor 3) [nM]	Ki (Melanocortin receptor 4) [nM]
CC(=O)N[C@@H](Cc1ccc(O)cc1)C(=O)N[C@@H](CCCNC(=N)N)C(=O)N[C@H]1CSSC[C@@H](C(N)=O)NC(=O)[C@H](Cc2c[nH]c3ccccc23)NC(=O)[C@H](CCCNC(=N)N)NC(=O)[C@@H](Cc2ccccc2)NC(=O)[C@H](Cc2c[nH]cn2)NC(=O)[C@H](CCC(=O)O)NC1=O	55	
CC(=O)N[C@@H](CCCNC(=N)N)C(=O)N[C@H]1CSSC[C@@H](C(N)=O)NC(=O)[C@H](Cc2c[nH]c3ccccc23)NC(=O)[C@H](CCCNC(=N)N)NC(=O)[C@@H](Cc2ccccc2)NC(=O)[C@H](Cc2c[nH]cn2)NC(=O)[C@H](CCC(=O)O)NC1=O		0.44
CC(=O)N[C@@H](Cc1ccc(O)cc1)C(=O)N[C@@H](CCCCN)C(=O)N[C@H]1CSSC[C@@H](C(N)=O)NC(=O)[C@H](Cc2c[nH]c3ccccc23)NC(=O)[C@H](CCCNC(=N)N)NC(=O)[C@@H](Cc2ccccc2)NC(=O)[C@H](Cc2c[nH]cn2)NC(=O)[C@H](CCC(=O)O)NC1=O	98	
